# This is a sample that favours compounds with a hit; in the whole collection about 13% have one here.
# KDM4E inh = JMJD2E (human) inhibition. B2RXH2. JMJD2E catalytic domain, FDH-coupled NADH fluorescence (FDH is formaldehyde dehydrogenase). Potency, µM (titrated, usually from 57.1 µM), for the others: at the highest dose activity change, negative = inhibition, hits mostly inhibitors. hit rate 1.6% among 230,000. AID 2147; active means well fitted inhibition curve with a large enough effect, not every such curve was filed as active; inconclusive means small, poorly fitted or top-dose-only effect, or another doubt; inactive means no such curve, though single readings can be large or run the other way;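 further: potency means the concentration at half of the fitted maximal effect; 0% = wells with enzyme and -100% = buffer wells without enzyme; nearly all actives have a fitted effect of over 50% in size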
# miR-21 reporter = miR-21 reporter, rising signal | HeLa miR-21 FLuc reporter, luciferase, 48 h | Potency, µM (top dose mostly 38.3 µM), inactives show at the highest dose reporter change, positive = more light | 340,000 tested, under 10 active | AID 2288; active = well fitted rising curve with a large enough effect; inconclusive = small, poorly fitted or top-dose-only effect; inactive = no such curve, though single readings can be large or run the other way;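 note: % of control where 0% means no effect; miR-21 action dims this reporter so a rising signal means less miR-21 action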
#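 HeLa miR-21-FLuc reporter line, endogenous miR-21; 2000 cells/well in DMEM/10% FBS; compound titration up to ~40uM final, 48 h, 37 degree Celsius; luciferase detection reagent, 15 min lysis, CCD luminescence.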
# Lamin A splicing = changes lamin A minigene splicing in HeLa cells. HeLa LMNA splicing GFP/RFP minigene ratio, 48 h. Potency, µM (titrated, usually from 46.1 µM), inactives show top-dose ratio change, negative = inhibition, most hits filed as inhibitors. hit rate 0.01% among 200,000. AID 1487; active means well fitted inhibition curve with a large enough effect in the signal ratio, with a control signal flat, not every such curve was filed as active; inconclusive means small, poorly fitted or top-dose-only effect, or effect the other way, or a change in a side signal; the % refers to the signal ratio; further: potency means the concentration at half of the fitted maximal effect; on the % scale 0 is the no-effect control and ±100 the full control effect
#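 S3 HeLa cells stably expressing lamin A-EGFP splicing minigene plus DsRed2, 600 cells/well, 48 h compound exposure at 37C. Laser-scanning cytometry; analysed as GFP (500-530 nm)/RFP (575-640 nm) total intensity ratio; 0.5% DMSO vehicle.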
# G9a inh = inhibitors of human histone lysine methyltransferase G9a | Q96KQ7 | G9a H3K9 monomethylation, AlphaScreen, 2 h | Potency, µM (series often up to 102 µM), for the others: at the top dose activity, negative = inhibition, actives largely listed as inhibitors | hit rate 8.8% among 350,000 | AID 504332; further: potency means the concentration at half of the fitted maximal effect; on the % scale 0 is the no-effect control and ±100 the full control effect; nearly all actives have a fitted effect of over 75% in size
#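 Chemiluminescent proximity detection of H3K9 monomethylation, read after 10 min bead incubation in the dark. Reaction: 20 nM G9a, 500 nM biotin-H3K9 peptide, 20 uM SAM cofactor, 2 h, room temperature, following 15 min enzyme-compound preincubation.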
# ALDH1A1 block = blocks purified human ALDH1A1 activity; P00352; Purified ALDH1A1, NADH fluorescence, propionaldehyde substrate; Potency, µM (highest dose often 75.3 µM), without a hit: at the top dose activity, negative = inhibition, usual class: inhibitors; hit rate 7.3% among 220,000; active means well fitted inhibition curve with a large enough effect, not every such curve was filed as active; inconclusive means small, poorly fitted or top-dose-only effect, or another doubt; inactive means no such curve, though single readings can be large or run the other way;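 further: potency means the concentration at half of the fitted maximal effect; plate controls were no enzyme wells and a reference inhibitor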
# Sfp PPTase inh = inhibitors of Bacillus subtilis Sfp phosphopantetheinyl transferase. Q9F4F7. Biochemical Sfp PPTase activity, qHTS. Potency, µM, for the others: max response, negative = inhibition, most hits filed as inhibitors. actives 3.5% (n = 310,000). AID 1490; active means well fitted inhibition curve with a large enough effect; inconclusive means small, poorly fitted or top-dose-only effect, or another doubt; inactive means no such curve, though single readings can be large or run the other way;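 further: the enzyme is Sfp with the accession as filed and its product quenches rhodamine fluorescence; potency means the concentration at half of the fitted maximal effect; 0% = enzyme reaction without inhibitor and -100% = no enzyme wells; top concentration of the series not given in the record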
#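 Fluorescence-quenching assay with 15 nM Sfp, 5 uM rhodamine-CoA and 12.5 uM BHQ-2-labelled ybbR peptide in pH 7.6 Hepes/MgCl2 buffer. Enzyme was pre-incubated with compound for 15 min at room temperature. Rate was taken from the 30-min fluorescence change (525/598 nm).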
# Starred values were filed as active, the others as inactive; u = inconclusive; x = no result; [ ] = another dose, or the depositor's remark. Unless noted, the call rests on the fitted dose curve; in most records, active means well fitted curve in the direction sought with a large enough effect; inconclusive means small, poorly fitted or top-dose-only effect, or another doubt; inactive means no such curve, though single readings can be large; an effect the other way counts as inactive or inconclusive.
1: Cc1ccn2c(NC(=O)c3ccccc3)c(-c3ccccc3)nc2c1
2: Cc1cccc(C(=O)n2c(=S)nc3cc(C)ccn32)c1
3: Cc1ccc(NC(=O)NNC(=O)C2CCN(Cc3ccc(F)cc3Cl)CC2)cc1
4: N#Cc1cnc(NN)nc1
5: CCc1ccc(C(C)NC(=O)c2cc(C)oc2C)cc1 (stereo not drawn)
6: CS(=O)(=O)N(CC(=O)Nc1ccc(Br)cc1)c1ccccc1Br
7: NS(=O)(=O)c1ccc(CCNC(=O)c2ccc(NC3=NC4CS(=O)(=O)CC4S3)cc2)cc1 (stereo not drawn)
8: Cc1cc(C)c2nc(SCC(=O)NCCC3=CCCCC3)cc(C)c2c1

assay / compound	1	2	3	4	5	6	7	8
KDM4E inh	x	-2%	0%	u	10%	x	x	7%
miR-21 reporter	-25%	-69%	-3%	-15%	2%	2%	6%	-6%
Lamin A splicing	x	x	x	u	5%	-2%[46 µM]	x	-13%
G9a inh	26%[59 µM]	7.9µM*	20%	50µM*	u	8%[59 µM]	11%	-1%[59 µM]
ALDH1A1 block	x	u	10%	u	u	x	x	0%
Sfp PPTase inh	7%	8.9µM*	18%	6.3µM*	16µM*	x	5%	3%

9: CCOC(=O)NC(=O)CSc1cc(C)c2cc(C)cc(C)c2n1
10: COC(=O)c1ccc(CSc2cc(C)c3cccc(C)c3n2)o1
11: COC(=O)c1ccc(CSc2cc(C)c3cc(C)cc(C)c3n2)o1
12: COC(=O)c1ccc(CSc2n[nH]c(C)n2)o1
13: Cc1ccc(NC(=O)CCCn2c3ccccc3c(=O)c3cc(C)ccc32)c(Br)c1
14: CC(C)(C)NC(=O)C(c1ccc(F)cc1)N(Cc1ccco1)C(=O)CCC(=O)Nc1ccccn1 (stereo not drawn)
15: Cc1cc(Cl)c2ccccc2n1
16: Cc1cc(Cl)c2ccc3ccccc3c2n1

assay / compound	9	10	11	12	13	14	15	16
KDM4E inh	-6%	10%	-26%	10%	x	x	2%	-20%
miR-21 reporter	-3%	-6%	-5%	-4%	17%	-1%	3%	-2%
Lamin A splicing	x	u	-11%[46 µM]	14%	x	x	4%	1%[46 µM]
G9a inh	u	80%	-40%	-2%[59 µM]	2%[59 µM]	28%	-8%[59 µM]	25µM*
ALDH1A1 block	-10%	u	13µM*	7%	x	x	11%	-15%
Sfp PPTase inh	45µM*	10µM*	14µM*	11%	x	13%	2%	2%

17: CCCCCCCc1ccc(C2NC(=S)NC3=C2C(=O)c2ccccc23)cc1 (stereo not drawn)
18: CCCCCCC1CC(=O)NC(=S)N1 (stereo not drawn)
19: O=[N+]([O-])c1ccc(-c2c[nH]c(=S)[nH]2)cc1
20: S=c1[nH]cc(-c2ccccc2)[nH]1
21: Cc1cc(C)cc(NC(=O)C2CCN(c3nc4ccccc4nc3C(F)(F)F)CC2)c1
22: Cc1cnc(CNc2ncncc2-c2ccccc2C)cn1
23: COc1ccc(N2C(=O)[C@@H]3[C@H](C2=O)[C@H](C(=O)c2ccc(OC(C)=O)cc2)N2N=CC=C[C@@H]32)cc1
24: COc1ccc(C(=O)[C@H]2[C@H]3C(=O)N(c4ccccc4)C(=O)[C@H]3C3C=CC=NN32)cc1 (stereo partly drawn)

assay / compound	17	18	19	20	21	22	23	24
KDM4E inh	-2%	-4%	22%	u	x	x	-20%	u
miR-21 reporter	-3%	17%	-6%	-1%	-1%	x	-56%	-24%
Lamin A splicing	x	-12%[46 µM]	x	x	x	0%	u	-7%[46 µM]
G9a inh	10%[12.7 µM]	-18%	2µM*	-130%[59 µM]	2%[59 µM]	-14%[0.501 µM]	3.5µM*	u
ALDH1A1 block	x	4µM*	0.5µM*	x	x	1%	u	x
Sfp PPTase inh	14%	9%	3.5µM*	-2%	x	u	-23%	u

# 3 entries out of the list, ordered by number of heavy atoms, ascending.
20: S=c1[nH]cc(-c2ccccc2)[nH]1
22: Cc1cnc(CNc2ncncc2-c2ccccc2C)cn1
23: COc1ccc(N2C(=O)[C@@H]3[C@H](C2=O)[C@H](C(=O)c2ccc(OC(C)=O)cc2)N2N=CC=C[C@@H]32)cc1

assay / compound	20	22	23
KDM4E inh	u	x	-20%
miR-21 reporter	-1%	x	-56%
Lamin A splicing	x	0%	u
G9a inh	-130%[59 µM]	-14%[0.501 µM]	3.5µM*
ALDH1A1 block	x	1%	u
Sfp PPTase inh	-2%	u	-23%

# (continued)
25: CC(=O)Oc1ccc(C(=O)[C@H]2[C@H]3C(=O)N(c4ccccc4)C(=O)[C@H]3[C@@H]3C=CC=NN32)cc1
26: Cc1ccc(N2C(=O)[C@@H]3[C@H](C2=O)[C@H]2C=CC=NN2[C@@H]3C(=O)Nc2ccccc2)cc1
27: CC(=O)Oc1ccc(C(=O)[C@H]2[C@H]3C(=O)N(c4ccc(C)cc4)C(=O)[C@H]3[C@@H]3C=CC=NN32)cc1
28: CC(=O)Oc1ccc(N2C(=O)[C@@H]3[C@H](C2=O)[C@H]2c4ccccc4C=NN2[C@@H]3C(C)=O)cc1
29: COc1ccc(C(=O)[C@H]2[C@H]3C(=O)N(c4ccc(C)cc4)C(=O)[C@H]3C3C=CC=NN32)cc1 (stereo partly drawn)
30: COc1ccc(OC)c(NC(=O)C(C)n2c(=O)c(-c3ccccc3NC(C)=O)nc3ccccc32)c1 (stereo not drawn)
31: Cc1ccccc1CNC(=O)c1ccc(CS(=O)Cc2ccc(Cl)cc2)o1 (stereo not drawn)
32: CC(=O)Oc1ccc(C(=O)[C@H]2[C@H]3C(=O)N(c4ccc(C)cc4C)C(=O)[C@H]3[C@@H]3C=CC=NN32)cc1

assay / compound	25	26	27	28	29	30	31	32
KDM4E inh	-4%	-8%	-28%	-3%	u	x	x	u
miR-21 reporter	-25%	-18%	-49%	-16%	-35%	2%	4%	-14%
Lamin A splicing	-4%	x	u	x	x	x	x	x
G9a inh	4.5µM*	7.1µM*	3.5µM*	u	x	-5%[59 µM]	-29%[59 µM]	3.5µM*
ALDH1A1 block	0%	25µM*	20µM*	x	x	x	x	x
Sfp PPTase inh	u	-14%	-22%	12%	-9%	x	x	50µM*

33: Cc1ccc(S(=O)(=O)Nc2cc(C(=O)NCCN(C)C)ccc2N2CCCCC2)cc1
34: COCCCNC(=O)c1ccccc1NS(=O)(=O)c1ccc(C)cc1
35: Cc1ccc(NS(=O)(=O)c2cc(C(=O)NCc3ccncc3)ccc2C)cc1
36: Cc1ccc(S(=O)(=O)Nc2cc(C(=O)N3CCOCC3)ccc2N2CCCCC2)cc1
37: COCCNC(=O)c1ccc(C)c(S(=O)(=O)Nc2ccc(C)cc2)c1
38: Cc1ccc(S(=O)(=O)Nc2cc(C(=O)NCCN3CCCC3)ccc2N2CCCCC2)cc1
39: CCOCCCNC(=O)c1ccc(N2CCCC2)c(NS(=O)(=O)c2ccc(C)cc2)c1
40: COCCCNC(=O)c1ccc(N2CCCC2)c(NS(=O)(=O)c2ccc(C)cc2)c1

assay / compound	33	34	35	36	37	38	39	40
KDM4E inh	u	u	x	-4%	-2%	-14%	u	u
miR-21 reporter	-5%	-3%	-4%	-8%	-5%	2%	-16%	-22%
Lamin A splicing	-10%	4%	x	-5%[0.0737 µM]	-11%	12%[0.0737 µM]	x	4%
G9a inh	3%[12.7 µM]	-5%[12.7 µM]	1%	33%[0.501 µM]	79µM*	44%[0.501 µM]	u	7.9µM*
ALDH1A1 block	16µM*	-10%	x	u	5%	u	7.9µM*	14µM*
Sfp PPTase inh	-20%	5%	7%	3%	1%	-21%	-11%	u

41: CNS(=O)(=O)c1cn(CC(=O)N2CCN(c3ccc(C)cc3C)CC2)cc1S(=O)(=O)NC
42: O=C(CSc1ccc(F)cc1)Nc1ccc(C2SCCS2)cc1
43: CC(=O)N/C(=C/c1ccc(OS(=O)(=O)c2ccc(C)cc2)cc1)C(=O)NCCCO
44: CC(=O)N/C(=C/c1ccc(OS(=O)(=O)c2ccc(C)cc2)cc1)C(=O)NCCO

assay / compound	41	42	43	44
KDM4E inh	x	5%	1%	4%
miR-21 reporter	8%	-66%	-1%	-6%
Lamin A splicing	x	x	1%[46 µM]	u
G9a inh	u	6%	x	-30%[59 µM]
ALDH1A1 block	x	x	2.2µM*	-9%
Sfp PPTase inh	x	4%	24%	10%

# Taken from above:
# Value of no. 42 in G9a inh: 6%
# Value of no. 44 in miR-21 reporter: -6%
# Value of no. 43 in Sfp PPTase inh: 24%
